Earlier results, collected in publication PMC11855478, “Bicyclic N,S-Acetals Containing Fused Cysteine-Amide System as New Heterocyclic Class Targeting Human Farnesyltransferase (FTase-h)” (International Journal of Molecular Sciences, 2025).

Target: FTase
Conditions: known FTIs, Figure 1; cited from earlier work

For `NC(=O)N1CCC(CC(=O)N2CCC([C@H]3c4ncc(Br)cc4CCc4cc(Cl)cc(Br)c43)CC2)CC1` [Lonafarnib (SCH 66336), Lonafarnib], the IC50 is listed as 1.9 nM.
